The results in this text go back to US6962920B2, “Pyrimidine derivatives and methods of making and using these derivatives” (Duquesne University of the Holy Ghost, priority 1992, dated 2005).

In experiment [1] the target is T1, human recombinant (REC) DHFR (Homo sapiens, UniProt P00374).
T1 sequence (P00374 1-187): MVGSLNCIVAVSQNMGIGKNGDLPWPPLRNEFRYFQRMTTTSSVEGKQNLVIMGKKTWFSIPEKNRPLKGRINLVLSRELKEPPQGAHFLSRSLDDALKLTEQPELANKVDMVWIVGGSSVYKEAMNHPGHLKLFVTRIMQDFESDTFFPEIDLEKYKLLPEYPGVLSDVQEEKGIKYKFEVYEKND
Kind of experiment: Inhibition of human recombinant DHFR. The conditions noted are these: Table 17. Format: biochemical.

In another experiment the target is T2, Pc DHFR (Pneumocystis carinii, UniProt P16184).
T2 sequence (P16184 1-206): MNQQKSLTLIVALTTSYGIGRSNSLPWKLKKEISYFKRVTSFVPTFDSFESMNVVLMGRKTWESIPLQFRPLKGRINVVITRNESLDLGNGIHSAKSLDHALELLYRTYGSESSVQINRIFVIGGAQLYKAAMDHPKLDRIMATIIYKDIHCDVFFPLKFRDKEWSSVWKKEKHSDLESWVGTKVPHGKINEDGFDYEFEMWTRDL
Type of experiment: biochemical. To be noted: Table 7.

By IC50 is commonly meant the concentration needed to halve the response being measured. Consider `Nc1nc(N)c2c(CCc3ccc(C(=O)N[C@@H](CCC(=O)O)C(=O)O)cc3)coc2n1` [Compound 33, N-[4-[2-(2,4-diaminofuro[2,3-d]pyrimidin-5-yl)ethyl]-benzoyl]-L-glutamic acid], for which the IC50 in experiment [1] stood at 1000 nM.

Take `COc1ccc(OC)c(Cc2cnc3nc(N)nc(N)c3c2C)c1` [PTX, piritrexim, reference compound]: half-maximal inhibition at Pc DHFR (IC50) required 38 nM.
